Experimental findings from ChEMBL document CHEMBL2407068, “Tropolones as lead-like natural products: the development of potent and selective histone deacetylase inhibitors” (ACS Med Chem Lett, 2013) are described below.

Protein sequences, listed by entry. Tags and fused reporters are not part of them. Lines headed by an entry give the natural chain unless they say otherwise; changes in a name come on top.
UniProt Q9UQL6: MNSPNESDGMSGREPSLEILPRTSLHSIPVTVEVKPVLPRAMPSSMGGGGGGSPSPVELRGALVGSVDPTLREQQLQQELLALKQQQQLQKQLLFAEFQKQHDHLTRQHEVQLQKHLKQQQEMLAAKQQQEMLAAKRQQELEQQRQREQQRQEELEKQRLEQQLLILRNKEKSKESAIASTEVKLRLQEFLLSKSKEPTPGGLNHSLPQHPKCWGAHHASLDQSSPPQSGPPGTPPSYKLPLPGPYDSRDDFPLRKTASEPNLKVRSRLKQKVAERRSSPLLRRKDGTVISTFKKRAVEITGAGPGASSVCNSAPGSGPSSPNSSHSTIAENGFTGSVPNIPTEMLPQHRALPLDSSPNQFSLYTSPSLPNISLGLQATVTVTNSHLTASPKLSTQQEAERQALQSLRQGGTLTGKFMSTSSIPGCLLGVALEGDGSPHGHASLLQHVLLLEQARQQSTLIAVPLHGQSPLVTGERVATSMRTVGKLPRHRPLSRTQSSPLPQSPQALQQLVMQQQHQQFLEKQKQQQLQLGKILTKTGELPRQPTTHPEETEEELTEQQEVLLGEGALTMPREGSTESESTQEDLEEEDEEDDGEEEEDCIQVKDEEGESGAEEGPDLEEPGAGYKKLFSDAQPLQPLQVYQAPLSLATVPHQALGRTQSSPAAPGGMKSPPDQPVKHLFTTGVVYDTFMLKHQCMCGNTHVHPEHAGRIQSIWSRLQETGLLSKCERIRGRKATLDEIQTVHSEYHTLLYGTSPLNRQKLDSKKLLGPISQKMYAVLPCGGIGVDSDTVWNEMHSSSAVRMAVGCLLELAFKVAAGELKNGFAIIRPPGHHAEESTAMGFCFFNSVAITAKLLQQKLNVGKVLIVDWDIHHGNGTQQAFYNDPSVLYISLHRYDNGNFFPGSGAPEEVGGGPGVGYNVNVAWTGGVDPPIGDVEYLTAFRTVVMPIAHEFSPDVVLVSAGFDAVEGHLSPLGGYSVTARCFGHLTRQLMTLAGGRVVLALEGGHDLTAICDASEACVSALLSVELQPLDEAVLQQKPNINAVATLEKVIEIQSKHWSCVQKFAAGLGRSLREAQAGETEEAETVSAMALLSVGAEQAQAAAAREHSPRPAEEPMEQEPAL

One may read the Ki as the dissociation constant of the complex between target and ligand, obtained from inhibition or displacement.

The target in the experiment is Histone deacetylase 5 (Homo sapiens, UniProt Q9UQL6). Put plainly: Inhibition of human recombinant HDAC5 by Michaelis-Menten equation analysis.

In the case of `CC(/C=C/C(=O)NO)=C\[C@@H](C)C(=O)c1ccc(N(C)C)cc1` [TRICHOSTATIN], the Ki worked out at 4.12 µM.
